{"source": "paper PMC2362153", "about": "“Increased accumulation of doxorubicin and doxorubicinol in cardiac tissue of mice lacking mdr1a P-glycoprotein” (British Journal of Cancer, 1999)", "key": {"[1]": {"test": "Tissue distribution of doxorubicin and metabolites in wild-type and mdr1a(-/-) mice (HPLC)", "source_text": "(§1) Blank human plasma was obtained from healthy donors. […] All biological specimens were stored at -20C until analysis. […] However, […]"}, "[2]": {"test": "Plasma pharmacokinetics of doxorubicin and metabolites after i.v. bolus in wild-type and mdr1a(-/-) mice (HPLC)", "source_text": "as §1"}}}
{"smiles": "COc1cccc2c1C(=O)c1c(O)c3c(c(O)c1C2=O)C[C@@](O)(C(=O)CO)C[C@@H]3O[C@H]1C[C@H](N)[C@H](O)[C@H](C)O1", "note": "[doxorubicin]", "values": [{"measurement": "Ratio, drug concentration in mdr1a(-/-) vs wild-type mice", "setting": "[1]; brain, 1 h", "value": 2.8}, {"measurement": "Ratio, drug concentration in mdr1a(-/-) vs wild-type mice", "setting": "[1]; brain, 4 h", "value": 2.8}, {"measurement": "Ratio, drug concentration in mdr1a(-/-) vs wild-type mice", "setting": "[1]; brain, 24 h", "value": 3.8}, {"measurement": "Ratio, drug concentration in mdr1a(-/-) vs wild-type mice", "setting": "[1]; breast, 1 h", "value": 1.1}, {"measurement": "Ratio, drug concentration in mdr1a(-/-) vs wild-type mice", "setting": "[1]; breast, 4 h", "value": 1.7}, {"measurement": "Ratio, drug concentration in mdr1a(-/-) vs wild-type mice", "setting": "[1]; breast, 24 h", "value": 3.7}, {"measurement": "Ratio, drug concentration in mdr1a(-/-) vs wild-type mice", "setting": "[1]; caecum, 1 h", "value": 1.2}, {"measurement": "Ratio, drug concentration in mdr1a(-/-) vs wild-type mice", "setting": "[1]; caecum, 4 h", "value": 1.1}, {"measurement": "Ratio, drug concentration in mdr1a(-/-) vs wild-type mice", "setting": "[1]; caecum, 24 h", "value": 2.5}, {"measurement": "Ratio, drug concentration in mdr1a(-/-) vs wild-type mice", "setting": "[1]; colon, 1 h", "value": 1.2}, {"measurement": "Ratio, drug concentration in mdr1a(-/-) vs wild-type mice", "setting": "[1]; colon, 4 h", "value": 1.0}, {"measurement": "Ratio, drug concentration in mdr1a(-/-) vs wild-type mice", "setting": "[1]; colon, 24 h", "value": 2.6}, {"measurement": "Ratio, drug concentration in mdr1a(-/-) vs wild-type mice", "setting": "[1]; heart, 1 h", "value": 1.1}, {"measurement": "Ratio, drug concentration in mdr1a(-/-) vs wild-type mice", "setting": "[1]; heart, 4 h", "value": 1.1}, {"measurement": "Ratio, drug concentration in mdr1a(-/-) vs wild-type mice", "setting": "[1]; heart, 24 h", "value": 2.8}, {"measurement": "Tissue level", "setting": "[1]; heart, 24 h after i.v. 5 mg kg-1 doxorubicin, mdr1a(-/-) mice", "value": 4.74, "unit": "nmol g-1 tissue"}, {"measurement": "Ratio, drug concentration in mdr1a(-/-) vs wild-type mice", "setting": "[1]; kidney, 1 h", "value": 0.9}, {"measurement": "Tissue level", "setting": "[1]; kidney, 1 h after i.v. 5 mg kg-1 doxorubicin, wild-type mice", "value": 36.2, "unit": "nmol g-1 tissue"}, {"measurement": "Ratio, drug concentration in mdr1a(-/-) vs wild-type mice", "setting": "[1]; kidney, 4 h", "value": 1.0}, {"measurement": "Ratio, drug concentration in mdr1a(-/-) vs wild-type mice", "setting": "[1]; kidney, 24 h", "value": 1.6}, {"measurement": "Ratio, drug concentration in mdr1a(-/-) vs wild-type mice", "setting": "[1]; liver, 1 h", "value": 2.2}, {"measurement": "Ratio, drug concentration in mdr1a(-/-) vs wild-type mice", "setting": "[1]; liver, 4 h", "value": 4.5}, {"measurement": "Ratio, drug concentration in mdr1a(-/-) vs wild-type mice", "setting": "[1]; liver, 24 h", "value": 8.1}, {"measurement": "Ratio, drug concentration in mdr1a(-/-) vs wild-type mice", "setting": "[1]; lung, 1 h", "value": 1.1}, {"measurement": "Ratio, drug concentration in mdr1a(-/-) vs wild-type mice", "setting": "[1]; lung, 4 h", "value": 1.0}, {"measurement": "Ratio, drug concentration in mdr1a(-/-) vs wild-type mice", "setting": "[1]; lung, 24 h", "value": 3.8}, {"measurement": "Ratio, drug concentration in mdr1a(-/-) vs wild-type mice", "setting": "[1]; muscle, 1 h", "value": 0.9}, {"measurement": "Ratio, drug concentration in mdr1a(-/-) vs wild-type mice", "setting": "[1]; muscle, 4 h", "value": 0.8}, {"measurement": "Ratio, drug concentration in mdr1a(-/-) vs wild-type mice", "setting": "[1]; muscle, 24 h", "value": 1.4}, {"measurement": "Ratio, drug concentration in mdr1a(-/-) vs wild-type mice", "setting": "[1]; ovary, 1 h", "value": 1.3}, {"measurement": "Ratio, drug concentration in mdr1a(-/-) vs wild-type mice", "setting": "[1]; ovary, 4 h", "value": 1.4}, {"measurement": "Ratio, drug concentration in mdr1a(-/-) vs wild-type mice", "setting": "[1]; ovary, 24 h", "value": 1.2}, {"measurement": "Ratio, drug concentration in mdr1a(-/-) vs wild-type mice", "setting": "[1]; small gut, 1 h", "value": 1.2}, {"measurement": "Ratio, drug concentration in mdr1a(-/-) vs wild-type mice", "setting": "[1]; small gut, 4 h", "value": 1.3}, {"measurement": "Ratio, drug concentration in mdr1a(-/-) vs wild-type mice", "setting": "[1]; small gut, 24 h", "value": 3.7}, {"measurement": "Ratio, drug concentration in mdr1a(-/-) vs wild-type mice", "setting": "[1]; spleen, 1 h", "value": 1.1}, {"measurement": "Ratio, drug concentration in mdr1a(-/-) vs wild-type mice", "setting": "[1]; spleen, 4 h", "value": 0.9}, {"measurement": "Ratio, drug concentration in mdr1a(-/-) vs wild-type mice", "setting": "[1]; spleen, 24 h", "value": 1.8}, {"measurement": "Ratio, drug concentration in mdr1a(-/-) vs wild-type mice", "setting": "[1]; stomach, 1 h", "value": 0.9}, {"measurement": "Ratio, drug concentration in mdr1a(-/-) vs wild-type mice", "setting": "[1]; stomach, 4 h", "value": 1.5}, {"measurement": "Ratio, drug concentration in mdr1a(-/-) vs wild-type mice", "setting": "[1]; stomach, 24 h", "value": 1.8}, {"measurement": "Ratio, drug concentration in mdr1a(-/-) vs wild-type mice", "setting": "[1]; uterus, 1 h", "value": 1.3}, {"measurement": "Tissue level", "setting": "[1]; uterus, 1 h after i.v. 5 mg kg-1 doxorubicin, mdr1a(-/-) mice", "value": 10.6, "unit": "nmol g-1 tissue"}, {"measurement": "Ratio, drug concentration in mdr1a(-/-) vs wild-type mice", "setting": "[1]; uterus, 4 h", "value": 0.7}, {"measurement": "Ratio, drug concentration in mdr1a(-/-) vs wild-type mice", "setting": "[1]; uterus, 24 h", "value": 1.9}, {"measurement": "Ratio, drug concentration in mdr1a(-/-) vs wild-type mice", "setting": "[2]; 1 h", "value": 0.9}, {"measurement": "Ratio, drug concentration in mdr1a(-/-) vs wild-type mice", "setting": "[2]; 4 h", "value": 0.9}, {"measurement": "Ratio, drug concentration in mdr1a(-/-) vs wild-type mice", "setting": "[2]; 24 h", "value": 1.7}]}
